High-throughput results (PubChem BioAssay)
Rows were chosen to be rich in hits. Some 0.92% of all compounds tested hit in one or more screens of this group.
uPA generation: cell surface uPA generation inhibition | cell surface uPA generation assay, qHTS | Potency, µM (series often up to 38.3 µM), actives largely listed as inhibitors | 330,000 compounds, 0.31% hits; active = well fitted inhibition curve with a large enough effect; inconclusive = small, poorly fitted or top-dose-only effect; inactive = no such curve, though single readings can be large or run the other way; tested in mouse RAW 264.7 cells; note: nearly all actives have a fitted effect of over 55% in size
Giardia killer: kills Giardia lamblia. Giardia lamblia trophozoite viability. activity change, % at 7.66 µM, hits read low. 340,000 compounds, 0.15% hits. AID 540267; in the data active = activity change below about -80%; inconclusive = between about -30% and that limit;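 note: parasites exposed to compound for two days anaerobically before the ATP read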
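Trophozoite viability was measured as ATP-dependent luminescence, read 15-30 min after reagent addition. Before that, parasites at 100 cells/well were exposed to compounds for 48 h, anaerobically, at 37 deg C.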
FBPA coupling cs: coupling enzyme interference in Giardia aldolase counter-screen; coupling enzyme system counterscreen, AmpLite Red fluorescence; activity change, negative = inhibition, % at 58.2 µM, hits read low; 290,000 compounds, 0.67% hits; in the data active = activity change below about -30%
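First, compound is pin-transferred into glyceraldehyde-3-phosphate coupling-enzyme reagent at 57.5 uM final and held 10 min at RT. Next, substrate, coupling system and AmpLite Red are added. After 20 min RT, fluorescence (525/598 nm) is read.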
B2AR arrestin: agonists driving beta-arrestin recruitment to human beta2-adrenergic receptor. P07550. beta-arrestin recruitment to beta2AR, cell-based reporter. Potency, µM (highest dose often 46.1 µM), actives largely listed as activators. 330,000 compounds, 0.02% hits. AID 492947; note: nearly all actives have a fitted effect of over 65% in size
miR-21 FLuc: miR-21 reporter, rising signal; Potency, µM (titrated, usually from 38.3 µM); AID 2288; 340,000 tested, under 10 active; HeLa miR-21 FLuc reporter, luciferase, 48 h; active = well fitted rising curve with a large enough effect; inconclusive = small, poorly fitted or top-dose-only effect; inactive = no such curve, though single readings can be large or run the other way;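 note: miR-21 action dims this reporter so a rising signal means less miR-21 action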
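Compounds were titrated across several concentrations (up to approximately 40 uM) and incubated 48 hours with HeLa miR-21-FLuc reporter cells (miR-21 target sequence downstream of FLuc, endogenous miR-21). Readout was firefly luciferase luminescence after lytic detection reagent.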
GALK inh: galactokinase (human) inhibition. P51570. Purified GALK, Kinase-Glo residual ATP luminescence. Potency, µM (top dose mostly 57.5 µM), most hits filed as inhibitors. 270,000 compounds, 0.007% hits. AID 1868
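5 nM enzyme, 35 uM ATP, 100 uM galactose, 20 mM HEPES pH8.0, 5 mM MgCl2; 1 h RT; residual ATP by Kinase-Glo Plus luminescence, qHTS format.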
Numbers stand for hits; 0 = inactive; ? = inconclusive; - = no result given. Unless noted, calls come from the whole dose curve; as a rule, active = well fitted curve in the direction sought with a large enough effect; inconclusive = small, poorly fitted or top-dose-only effect, or another doubt; inactive = no such curve, though single readings can be large; an effect the other way counts as inactive or inconclusive.

SMILES | uPA generation | Giardia killer | FBPA coupling cs | B2AR arrestin | miR-21 FLuc | GALK inh
Nc1c(C(=O)Nc2ccc3c(c2)OCCO3)nnn1CCc1ccccc1 | 7.94µM | 0 | 0 | 0 | 0 | 0
Cc1cc(C)cc(OCC(=O)Nc2ccc(-c3nc4ccccc4s3)cc2)c1 | - | - | - | - | 0 | -
CN1CCN(c2ccc([N+](=O)[O-])c(NCC3CCCO3)c2)CC1 (stereo not given) | 0 | 0 | -30.8 | 0 | 0 | 0
Cc1ccc(C(=O)Nc2nc3ccccc3[nH]2)cc1 | 0 | -92.5 | 0 | 0 | ? | 0
Cc1ccc(C(=O)Nc2nc3ccccc3n2CCN2CCCC2)cc1 | 0 | 0 | 0 | 0 | 0 | 0
COc1cc(OC)c2c(-c3cccc(-c4ccc(N(C)C)cc4)c3)cc(=O)oc2c1 | 1µM | 0 | 0 | 0 | - | -
O=C(O)C1C2CCC(O2)C1C(=O)Nc1cccc(Br)c1 (stereo not given) | 11.2µM | 0 | 0 | 0 | 0 | 0
CN(C)C1C(=O)C(C(N)=O)C(=O)C2(O)C(=O)C3C(=O)c4c(O)cccc4C(C)(O)C3C(O)C12 (stereo not given) | - | - | 0 | - | - | -
O=c1c(O)c(-c2ccc(O)c(O)c2)oc2c(O)c(O)cc(O)c12 | - | - | -57.4 | - | - | -
CCOC(=O)c1c(/N=C/c2c(O)n(-c3cccc(C)c3)c(=O)[nH]c2=O)sc2c1CCCC2 | 0 | 0 | 0 | 0 | 0 | -
CCOC(=O)c1cc(CC)sc1/N=C/C1C(=O)NC(=S)NC1=O | 0 | 0 | -38.8 | 0 | 0 | 0
CCOC(=O)c1cc(CC)sc1/N=C/c1c(O)[nH]c(=S)[nH]c1=O | 0 | 0 | -88.3 | 0 | 0 | 0
CCOC(=O)c1c(/N=C/C2C(=O)NC(=O)NC2=O)sc2c1CCC2 | 0 | 0 | 0 | 0 | 0 | 0
Cc1cnc2c(C(=O)O)c(Cl)ccc2c1 | - | - | 0 | - | - | -
Cc1ccc(S(=O)(=O)Nc2cccc3c2O[C@H](CN(C)C(=O)Nc2cccc4ccccc24)[C@H](C)CN([C@H](C)CO)C3=O)cc1 | ? | 0 | - | 0 | - | -
CN1CCN(c2ccc(CNS(=O)(=O)Cc3cccc(C(F)(F)F)c3)cc2)CC1 | ? | 0 | 0 | 0 | 0 | 0
CN(CCc1ccccc1)Cc1c[nH]c2ccccc12 | 2.24µM | 0 | 0 | 0 | 0 | 0
CCN(CC)Cc1c[nH]c2ccccc12 | 0 | 0 | 0 | 0 | 0 | 0
O=C(c1ccc2nc(-c3ccco3)c(-c3ccco3)nc2c1)N1CCC2(CC1)OCCO2 | 0 | 0 | -44.7 | 0 | 0 | 0
O=C(N[C@H]1C/C=C\C[C@H](CC(=O)N(CCO)Cc2ccccc2)C(=O)NC[C@H](c2ccccc2)OC1=O)OCC1c2ccccc2-c2ccccc21 | 0 | 0 | - | 0 | - | -
COc1cccc(-c2sc3ccccc3c2-c2ccc(OCCN(C)C)cc2)c1 | ? | 0 | - | 0 | - | -
CC(C)C[C@H]1C(=O)N2CCCC2[C@]2(O)O[C@](NC(=O)[C@@H]3C=C4c5cccc6[nH]cc(c56)CC4N(C)C3)(C(C)C)C(=O)N12 (stereo not given in full) | 0 | 0 | -38.0 | 0 | 0 | 0
CC(C)[C@@]1(NC(=O)[C@@H]2C[C@@H]3c4cccc5[nH]cc(c45)C[C@H]3N(C)C2)O[C@@]2(O)[C@@H]3CCCN3C(=O)[C@H](Cc3ccccc3)N2C1=O | ? | 0 | 0 | ? | 0 | 0
CC(C)[C@@]1(NC(=O)[C@@H]2C=C3c4cccc5[nH]cc(c45)C[C@H]3N(C)C2)O[C@@]2(O)[C@@H]3CCCN3C(=O)[C@H](Cc3ccccc3)N2C1=O | - | - | -40.2 | 0 | 0 | -
CN1C[C@@H](C(=O)N[C@@]2(C)O[C@]3(O)C4CCCN4C(=O)[C@@H](Cc4ccccc4)N3C2=O)C=C2c3cccc4[nH]cc(c34)C[C@@H]21 (stereo not given in full) | - | - | -32.5 | - | - | -
CNCC(O)c1ccc(OC(=O)C(C)(C)C)c(OC(=O)C(C)(C)C)c1 (stereo not given) | 0 | 0 | - | ? | - | -
O=c1cc(CSc2ccc(Cl)cc2)nc(-c2ccccn2)[nH]1 | ? | 0 | 0 | 0 | ? | 0
CN(CCc1ccccc1)C(=O)c1ccc(NC(=O)Cc2ccc([N+](=O)[O-])cc2)cc1 | ? | 0 | - | 0 | - | -
CCCCn1c(NC(=O)c2ccco2)c(C(=O)OCC)c2nc3ccccc3nc21 | 0 | 0 | -45.6 | 0 | 0 | 0
